Results on one compound are retold here after ChEMBL document CHEMBL1142716, “2-Hydroxy-4,6-diamino-[1,3,5]triazines: a novel class of VEGF-R2 (KDR) tyrosine kinase inhibitors” (J Med Chem, 2005).

By UniProt entry, the sequences of proteins in these tests, tags left out.
UniProt P35968, whole entry: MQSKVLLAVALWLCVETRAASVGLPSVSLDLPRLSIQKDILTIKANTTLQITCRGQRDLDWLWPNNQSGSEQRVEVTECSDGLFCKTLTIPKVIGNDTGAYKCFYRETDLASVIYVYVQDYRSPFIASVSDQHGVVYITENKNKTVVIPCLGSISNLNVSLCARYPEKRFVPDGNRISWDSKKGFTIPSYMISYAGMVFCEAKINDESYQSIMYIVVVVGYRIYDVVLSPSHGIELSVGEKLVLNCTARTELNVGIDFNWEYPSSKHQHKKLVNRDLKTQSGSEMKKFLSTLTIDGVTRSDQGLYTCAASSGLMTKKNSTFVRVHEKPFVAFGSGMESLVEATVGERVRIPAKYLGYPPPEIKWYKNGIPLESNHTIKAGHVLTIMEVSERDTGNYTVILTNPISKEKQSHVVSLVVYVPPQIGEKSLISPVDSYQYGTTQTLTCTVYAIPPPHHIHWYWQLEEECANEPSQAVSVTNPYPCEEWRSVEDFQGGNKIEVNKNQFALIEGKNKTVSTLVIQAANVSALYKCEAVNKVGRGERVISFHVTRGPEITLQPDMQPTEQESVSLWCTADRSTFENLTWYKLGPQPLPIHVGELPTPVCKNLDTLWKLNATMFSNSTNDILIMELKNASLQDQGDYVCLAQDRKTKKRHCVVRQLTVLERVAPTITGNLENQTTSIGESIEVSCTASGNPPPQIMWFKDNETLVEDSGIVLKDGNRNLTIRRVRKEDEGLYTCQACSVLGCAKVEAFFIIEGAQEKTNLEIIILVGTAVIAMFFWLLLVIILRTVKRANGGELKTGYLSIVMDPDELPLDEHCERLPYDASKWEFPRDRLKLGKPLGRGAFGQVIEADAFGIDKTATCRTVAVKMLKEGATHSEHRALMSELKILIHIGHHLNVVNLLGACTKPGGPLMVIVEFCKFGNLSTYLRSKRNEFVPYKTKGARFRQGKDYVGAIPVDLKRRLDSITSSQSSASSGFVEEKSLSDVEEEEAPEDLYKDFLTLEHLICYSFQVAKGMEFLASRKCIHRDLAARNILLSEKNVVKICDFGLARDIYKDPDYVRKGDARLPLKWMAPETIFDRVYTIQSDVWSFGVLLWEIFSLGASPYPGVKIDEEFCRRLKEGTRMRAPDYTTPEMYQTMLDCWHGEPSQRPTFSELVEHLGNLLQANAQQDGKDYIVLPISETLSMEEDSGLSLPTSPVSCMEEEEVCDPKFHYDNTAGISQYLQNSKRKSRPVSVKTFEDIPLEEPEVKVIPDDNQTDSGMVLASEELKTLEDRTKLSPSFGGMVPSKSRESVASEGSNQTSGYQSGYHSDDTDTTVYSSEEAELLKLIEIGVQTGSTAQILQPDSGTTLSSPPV

The target of the test is Vascular endothelial growth factor receptor 2 (Homo sapiens, UniProt P35968). The experiment in a line: In vitro inhibition of Vascular endothelial growth factor receptor 2 at 10 uM ATP.

As a reminder, the IC50 is the midpoint of a concentration-inhibition curve. Lower therefore signals inhibition by little substance. Compound `CN(c1ccc2ncsc2c1)c1nc(NC(C)(C)c2ccccc2)nc(=O)[nH]1` had an IC50 of 1600 nM.
